The source of these data is patent US20250066420A1, “PD-L1 INHIBITORY PEPTIDE FOR CANCER IMMUNOTHERAPY” (Kansas State University Research Foundation, priority 2021, published 2025).

Sequences of proteins named here, by UniProt entry; tags and fusion partners are left off. Residues count along the entry.
UniProt Q9NZQ7, 19-290: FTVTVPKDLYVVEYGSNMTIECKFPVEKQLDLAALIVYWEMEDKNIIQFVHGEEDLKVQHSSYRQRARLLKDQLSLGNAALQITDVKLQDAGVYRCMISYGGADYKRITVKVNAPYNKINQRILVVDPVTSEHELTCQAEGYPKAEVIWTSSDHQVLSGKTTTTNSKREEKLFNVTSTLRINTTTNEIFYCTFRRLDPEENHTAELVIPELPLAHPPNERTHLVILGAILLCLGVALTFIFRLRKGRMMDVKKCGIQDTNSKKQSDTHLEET

For this assay, the target named is T1, human PD-L1 (Homo sapiens, UniProt Q9NZQ7).
T1 construct: biotin (biotinylated); purchased R&D Systems (Minneapolis, Minnesota)
The assay can be described thus: Bio-layer interferometry binding to biotinylated PD-L1. Conditions: read-out: dissociation constant KD. From the text:
Binding of the computationally designed PD-L1ip3 peptide to PD-L1 was verified using a FortéBio BLItz machine (Freemont, CA, USA). The PD-L1ip3 peptide and its scrambled analogue were synthesized by GenScript (Piscataway, NJ) with no modifications or labels. Biotinylated human PD-L1 and untagged PD-1 (a positive control) were purchased from R&D Systems (Minneapolis, Minnesota). For each experiment, the BLItz machine was fitted with a fresh streptavidin biosensor tip (FortéBio). All tips were solvated in PBS buffer for 15-30 min before the experiments. The peptide was solvated at a concentration of approximately 1 mg/ml. The precise concentration of this stock solution (0.922 mg/ml) was obtained using the Pierce BCA Protein Assay Kit (Thermo Fisher Scientific) and multiple dilutions were made (corresponding to […]). A solution of biotinylated PD-L1 was applied to the biosensor tip during the loading phase of each experiment. PBS buffer (ix) was used for the baseline. The scrambled-sequence peptide, PD-L1ip3SC, served as the negative control and PD-1, the natural binding partner of PD-L1, was the positive control.

Consider “PD-1: untagged PD-1, the natural binding partner of PD-L1, positive control”, for which the Kd was roughly 8 µM.
